Here are results for one molecule from patent US4543254A, “Antiphlogistic/antipyretic/analgesic agents containing theobromine or theophylline derivatives as active ingredient” (Eisai Co., Ltd., priority 1982, dated 1985).

Each structure is given as a SMILES string. Like-named read-outs stand apart in the source and are kept apart here. A value given as a limit tells only on which side of the number the result lay.

The nature of the data set: in vivo. Particulars: po, p.o., read-out: Safety margin (LD50/ED50). The procedure:
Ten mice were used for each dose and morality was determined for 3 days after administration of each test compound of the invention. In the case of the rats, 5 rats were used for each dose and morality was determined 7 days after administrations.

Regarding `Cn1cnc2c1c(=O)n(CCCN1CCN(c3ccc(Cl)c(Cl)c3)CC1)c(=O)n2C` [Compound A', 1-(3-(4-(3,4-dichlorophenyl)piperazinyl-(1))-n-propyl)theobromine], the selectivity ratio is more than 100 (mouse, mice) and not below 50 (rat, rats).
